The list shows a part of the results, in another mix than the full data. The source made the active and inactive calls.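 How the source made its calls: active means CYP2C19 inhibition above a set limit at 5 µM in the primary screen (cut at about 50% in these data); inactive means the rest.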
Biological target: Cytochrome P450 2C19 (Homo sapiens) (UniProt P33261)
Assay: blockers of cytochrome P450 2C19 activity – biochemical, luminescence, ADME assay, primary screen (AID 778);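 further: plate controls were negative control wells for no effect and 2.5 mM tranylcypromine positive control for full effect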
Conditions: CYP2C19 Supersomes, luciferin-H EGE luminescence, 30 min; at 5 µM; active compounds read high

Sequences of proteins named here, by UniProt entry; tags and fusion partners are left off.
UniProt P33261, whole entry, looked up: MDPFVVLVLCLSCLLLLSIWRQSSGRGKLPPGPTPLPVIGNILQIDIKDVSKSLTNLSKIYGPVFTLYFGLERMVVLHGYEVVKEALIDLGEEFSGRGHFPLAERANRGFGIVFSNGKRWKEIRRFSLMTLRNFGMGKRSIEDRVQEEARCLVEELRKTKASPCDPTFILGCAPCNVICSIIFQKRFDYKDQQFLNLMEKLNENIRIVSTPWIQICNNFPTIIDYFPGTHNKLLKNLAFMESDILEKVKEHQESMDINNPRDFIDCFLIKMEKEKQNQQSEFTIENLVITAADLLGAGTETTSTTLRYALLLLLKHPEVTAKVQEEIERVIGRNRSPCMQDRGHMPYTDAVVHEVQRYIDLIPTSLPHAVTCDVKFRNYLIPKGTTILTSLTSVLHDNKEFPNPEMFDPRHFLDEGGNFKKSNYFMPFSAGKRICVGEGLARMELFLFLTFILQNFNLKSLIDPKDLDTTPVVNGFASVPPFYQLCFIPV

| Structure (SMILES) | inhibition |
| --- | --- |
| O=C(COc1ccccc1)OC1CN2CCC1CC2 (stereo not given) | inactive: -1.8% |
| COP1(=S)c2c(C)nn(CCC#N)c2N=C(c2ccc(F)cc2)N1C (stereo not given) | inactive: 35.7% |
| CCN(CC)C(=S)SC(NC=O)C(Cl)(Cl)Cl (stereo not given) | inactive: 46.9% |
| O=C(OC1CN2CCC1CC2)C12CC3CC(CC(C3)C1)C2 (stereo not given) | inactive: -9.9% |
| Cc1cccc(OCC(=O)OC2CN3CCC2CC3)c1 (stereo not given) | inactive: 11.1% |
| O=[N+]([O-])c1ccc2c(c1)nnn2O | inactive: -6.1% |
| CCOP1(=S)c2c(C)nn(CCC#N)c2N=C(c2ccc(F)cc2)N1C (stereo not given) | inactive: 40.6% |
| O=P(Nc1nccs1)(c1ccccc1)c1nc2ccccc2s1 (stereo not given) | active: 57.7% |
| CCOP1(=S)c2c(C)nn(CCC#N)c2N=C(c2ccccc2F)N1C (stereo not given) | active: 89.6% |
| Cc1ccc(OCC(=O)OC2CN3CCC2CC3)cc1 (stereo not given) | inactive: -5.3% |
| O=P1(Nc2ccc(Br)cn2)COc2ccccc2OC1 | active: 91.5% |
| O=P1(Nc2ncccn2)COc2ccccc2OC1 | inactive: -5.4% |
| Cc1nn(-c2ccccc2)c2c1P(=O)(N1CCOCC1)N(C)C(c1ccccc1)=N2 (stereo not given) | inactive: 9.5% |
| Clc1n[nH]nc1-c1nn[nH][15n]1 | inactive: -4.1% |
| O=P1(Nc2ccccn2)COc2ccccc2OC1 | active: 58.6% |
| c1nnnn1CCn1cnnn1 | inactive: -1.3% |
| O=P(Nc1nccs1)(c1ccccc1)c1ccccc1 | inactive: -1.4% |
| O=C(OC1CN2CCC1CC2)c1cccc(Cl)c1 (stereo not given) | inactive: 11.1% |
| COC(=O)c1cc2c(s1)N=C(c1ccccc1)N(C)P2(=O)N1CCOCC1 (stereo not given) | inactive: -2.6% |
| CCC(=O)N1C2C3N(C(=O)CC)C1C1N(C(=O)CC)C(C(N1C(=O)CC)N3C(=O)CC)N2C(=O)CC | inactive: 21.6% |
| CCOC(=O)NC(Sc1ccccc1)C(Cl)(Cl)Cl (stereo not given) | active: 71.4% |
| O=P1(Nc2nc3ccc(Cl)cc3s2)COc2ccccc2O1 (stereo not given) | inactive: 12.4% |
| CC(C)CC(=O)NC(Sc1ccc(Cl)cc1)C(Cl)(Cl)Cl (stereo not given) | active: 79.9% |
| Cc1c2non([O-])c-2c(C)[n+](=O)[n+]1[O-] | inactive: 1% |
| Oc1ccccc1CNc1ccccn1 | active: 51.7% |
| CCOP(=O)(Nc1ccccc1)OCC | inactive: 12.4% |
| CC1CCN(C(=O)Oc2c(Cl)cc(Cl)c3cccnc23)CC1 | inactive: 14.2% |
| O=[N+]([O-])c1cccc2n[nH]nc12 | inactive: -14% |
| CC(=O)N1C2C3N(C(C)=O)C1C1N(C(C)=O)C(C(N1C(C)=O)N3C(C)=O)N2C(C)=O | inactive: 45.8% |
| CCc1nc2c(n1)c1c(non1O)c1c2no[n+]1[O-] | inactive: 3.8% |

— PubChem BioAssay AID778 (Sanford-Burnham Center for Chemical Genomics, 2007)
